One substance from patent US20060115827A1, “Genetic markers for predicting disease and treatment outcome” (UNIVERSITY OF SOUTHERN CALIFORNIA, priority 2004, published 2006) can be followed below.

The data set deals with patients with metastatic CRC. The settings on record: human, in vivo.

Take “cetuximab: Epidermal Growth Factor Receptor (EGFR) inhibitor; anti-EGFR antibody”: the Skin reactions observed was 85%, the “Toxicity (rash) Grade 2” value was 51% and the “Toxicity (rash) Grade 3” value stood at 3%.
